The target in test [1] is T1, human NOP receptor (Homo sapiens, UniProt P41146). The test can be described thus: Radioligand competition binding, [3H]N/OFQ, membranes of transfected CHO cells. Background: Loss of bound radioactivity is the signal in a displacement assay; it reports binding, not function.
Test [2] deals with T1, human NOP receptor. As to the kind of experiment: [35S]GTPγS functional assay (intrinsic activity; Schild analysis vs N/OFQ). The following applies: inhibition of agonist-induced [35S]GTPγS binding. Format: biochemical.
Test [3] has as its target T1, human NOP receptor. Also on record: method as in PMID 25635572. The following applies: Figure 1; cited from earlier work.
In test [4] the target is T2, human DOP receptor (Homo sapiens, UniProt P41143). As to the kind of experiment: Radioligand competition binding, [3H]DPDPE, membranes of transfected CHO cells.
Test [5] has as its target T2, human DOP receptor. The following applies: read-out: DOP Ki; Figure 1; cited from earlier work.
In test [6] the target is T3, human MOP receptor (Homo sapiens, UniProt P35372). The following applies: read-out: MOP Ki; Figure 1; cited from earlier work.
In test [7] the target is T3, human MOP receptor. As to the kind of experiment: Radioligand competition binding, [3H]DAMGO, membranes of transfected CHO cells.

By UniProt entry, the sequences of proteins in these tests, tags left out. Where a name states a change or a piece, a line headed by the entry shows the natural chain unless it says otherwise.
UniProt P41146: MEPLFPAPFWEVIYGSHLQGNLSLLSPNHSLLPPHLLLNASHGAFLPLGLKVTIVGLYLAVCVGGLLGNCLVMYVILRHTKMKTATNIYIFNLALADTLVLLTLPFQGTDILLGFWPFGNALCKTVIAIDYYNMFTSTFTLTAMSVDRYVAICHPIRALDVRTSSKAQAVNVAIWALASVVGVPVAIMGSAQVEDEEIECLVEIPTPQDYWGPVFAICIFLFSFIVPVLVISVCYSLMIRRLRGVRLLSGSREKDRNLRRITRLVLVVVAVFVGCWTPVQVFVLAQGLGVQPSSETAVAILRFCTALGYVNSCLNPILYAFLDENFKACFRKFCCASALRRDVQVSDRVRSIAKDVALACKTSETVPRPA
UniProt P41143, whole entry: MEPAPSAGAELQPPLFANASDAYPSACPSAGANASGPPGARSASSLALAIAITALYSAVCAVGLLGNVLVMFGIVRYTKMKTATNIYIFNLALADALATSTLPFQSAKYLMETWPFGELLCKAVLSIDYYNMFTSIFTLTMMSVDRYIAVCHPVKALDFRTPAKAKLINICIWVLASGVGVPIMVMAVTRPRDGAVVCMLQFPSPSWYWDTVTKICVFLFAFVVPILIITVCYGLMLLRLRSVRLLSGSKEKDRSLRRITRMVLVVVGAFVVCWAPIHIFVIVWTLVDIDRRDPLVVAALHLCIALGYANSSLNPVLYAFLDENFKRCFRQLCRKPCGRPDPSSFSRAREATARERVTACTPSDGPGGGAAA
UniProt P35372, whole entry: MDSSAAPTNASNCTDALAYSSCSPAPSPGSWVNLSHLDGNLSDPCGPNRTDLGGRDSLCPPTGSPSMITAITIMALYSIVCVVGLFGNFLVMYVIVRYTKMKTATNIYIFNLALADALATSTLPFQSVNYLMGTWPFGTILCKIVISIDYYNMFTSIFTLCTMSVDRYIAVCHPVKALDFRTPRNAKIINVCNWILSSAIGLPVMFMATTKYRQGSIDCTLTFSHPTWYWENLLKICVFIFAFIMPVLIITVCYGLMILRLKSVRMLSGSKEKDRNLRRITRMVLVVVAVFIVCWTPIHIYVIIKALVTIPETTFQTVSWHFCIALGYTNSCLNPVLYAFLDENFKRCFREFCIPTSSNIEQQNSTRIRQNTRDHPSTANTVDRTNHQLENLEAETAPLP

Read-outs that look alike come from different tables or passages of the source.

With `CC(C)[C@@H](CN1CCC(c2cccc(O)c2)CC1)NC(=O)[C@H]1Cc2ccc(O)cc2CN1` [1 (AT-076), (R)-7-hydroxy-N-((S)-1-(4-(3-hydroxyphenyl)piperidin-1-yl)-3-methylbutan-2-yl)-1,2,3,4-tetrahydroisoquinoline-3-carboxamide], the Ki on human NOP receptor [1] and on human NOP receptor [3] was 1.75 ± 0.74 nM throughout. The “Antagonist Potency (pA2 ± SEM) NOP” value at human NOP receptor [2] is 7.52.

Consider `CC(C)[C@@H](CN1CC[C@@](C)(c2cccc(O)c2)[C@@H](C)C1)NC(=O)[C@H]1Cc2ccc(O)cc2CN1` [JDTic, reference compound], for which the Ki on human DOP receptor [4] is 10.6 ± 0.17 nM; on human DOP receptor [5], 10.6 ± 0.17 nM; on human MOP receptor [6] it was 1.53 ± 0.19 nM; on human MOP receptor [7], 1.53 ± 0.19 nM.

Usually Ki stands for the dissociation constant of the complex between target and ligand, obtained from inhibition or displacement.
